Measured values: patent US10539557B2

Tested on: Antibody to AH-7921 and nor-AH-7921 (raised against Immunogen 2 of Example 8)
Test: Competitive immunoassay (ELISA) with Tracer-1 (hapten-A conjugated to HRP), absorbance at 450 nm
Details: for IC50 = standard concentration which produces 50% inhibition of maximal signal: polyclonal antibody raised against Immunogen 2, Tracer-1; for % CR (cross-reactivity): relative to AH-7921 = 100%, calculated from IC50
Protocol: Pre-immunization blood samples are collected from young adult, female, Texel sheep. Texel sheep is a breed of domestic sheep originally from the island of Texel in the Netherlands. In order to generate polyclonal antisera, 2 mg of Immunogen-2 is prepared in PBS, mixed at a ratio of 50% immunogen in PBS to 50% Freund's Complete adjuvant (Sigma, Product Number F5881) and emulsified by repeatedly passing the mixture through a tip on the end of a 1 mL syringe, until it reaches the required semi-solid consistency. 1 mL of the emulsified mixture is injected intramuscularly into each host animal (sheep) as the primary immunisation dose. Further injections (boosts) are prepared (1 mg of immunogen is prepared in PBS and mixed at a ratio of 50% Immunogen in PBS/50% Freunds Incomplete adjuvant, Sigma, Product Number—F5506). Boost injections are delivered intramuscularly at monthly intervals, 1 mL per animal. Serum is sampled monthly by collection of whole blood from the jugular vein for evaluation of the antibody titre. The degree of antibody purification required depends on the intended application. (For many purposes, there is no requirement for purification of the serum, however, in other cases, such as where the antibody is to be immobilised on a solid support, purification steps (such as caprylic acid/ammonium sulphate precipitation) can be taken to remove undesired material and eliminate non-specific binding.)
A detecting agent (hapten-A conjugated to HRP (Tracer-1)) is added to a sample containing the target analyte and the raised antibodies, promoting competition between the detecting agent and analyte for binding to the antibodies. The antibodies were contacted with a polystyrene solid support (e.g. dilution of antibodies in coating buffer and incubation at 37° C. for 2 hours to allow antibody binding to surface). The antibodies can be polyclonal or monoclonal using standard techniques, but the current invention makes use of polyclonal antibodies. The signal emitted in the immunoassay is proportionate to the amount of detecting agent bound to the antibodies which in turn is inversely proportionate to the analyte concentration. The signal can be detected or quantified by comparison with a calibrator which comprises known levels of target analyte.
Antibodies were diluted in coating buffer and incubation at 37° C. for 2 hours to allow antibody binding to surface. The plate was washed. Detecting agent (hapten-A conjugated to HRP (Tracer-1)) was added to a sample containing the target analyte. The plate was washed. 125 μl of one-shot substrate (Thermo Fisher Product No. TMB005/001/UL—containing luminol) was added to each well and tapped gently. The plate was incubated at room temperature for 20 minutes in the dark. The reaction was stopped by addition of 125 μl of 0.2M Sulphuric acid to each well. The absorbance was measured at 450 nm using an ELISA plate reader (e.g. Biotek Elx800)
The cross-reactivity (CR) was calculated using the equation below. All calculations were based upon binding and displacement at the 50% of maximum OD (optical density) binding point. The maximum OD is the signal generated using tracer alone and 50% displacement (inhibition) corresponds to the IC50.
[formula] The Table below discloses the Antibody binding characteristics of Antibody to AH-7921 and nor-AH-7921 (raised against Immunogen 2 of Example 8); and Tracer-1 of Example 9.

CN(C)C1(CNC(=O)c2ccc(Cl)c(Cl)c2)CCCCC1
% B/B0 (0.156 ng/ml standard (L2)): 31% | % B/B0 (0.313 ng/ml standard (L3)): 18% | % B/B0 (0.625 ng/ml standard (L4)): 10% | % B/B0 (1.250 ng/ml standard (L5)): 5% | % B/B0 (2.500 ng/ml standard (L6)): 3% | % B/B0 (5.000 ng/ml standard (L7)): 2% | % B/B0 (10.000 ng/ml standard (L8)): 1% | IC50 = standard concentration which produces 50% inhibition of maximal signal: 0.081 ng/mL | % CR (cross-reactivity): 100.0%

CNC1(CNC(=O)c2ccc(Cl)c(Cl)c2)CCCCC1
% B/B0 (0.156 ng/ml standard (L2)): 36% | % B/B0 (0.313 ng/ml standard (L3)): 24% | % B/B0 (0.625 ng/ml standard (L4)): 15% | % B/B0 (1.250 ng/ml standard (L5)): 10% | % B/B0 (2.500 ng/ml standard (L6)): 6% | % B/B0 (5.000 ng/ml standard (L7)): 4% | % B/B0 (10.000 ng/ml standard (L8)): 3% | IC50 = standard concentration which produces 50% inhibition of maximal signal: 0.086 ng/mL | % CR (cross-reactivity): 94.186%

Some compounds may have been tested in ways that are not shown here.
